{"sequences": {"note": "Sequences of proteins named here, by UniProt entry; tags and fusion partners are left off. A change or cut given only in a name is not applied to a line headed by its entry.", "UniProt P41145": "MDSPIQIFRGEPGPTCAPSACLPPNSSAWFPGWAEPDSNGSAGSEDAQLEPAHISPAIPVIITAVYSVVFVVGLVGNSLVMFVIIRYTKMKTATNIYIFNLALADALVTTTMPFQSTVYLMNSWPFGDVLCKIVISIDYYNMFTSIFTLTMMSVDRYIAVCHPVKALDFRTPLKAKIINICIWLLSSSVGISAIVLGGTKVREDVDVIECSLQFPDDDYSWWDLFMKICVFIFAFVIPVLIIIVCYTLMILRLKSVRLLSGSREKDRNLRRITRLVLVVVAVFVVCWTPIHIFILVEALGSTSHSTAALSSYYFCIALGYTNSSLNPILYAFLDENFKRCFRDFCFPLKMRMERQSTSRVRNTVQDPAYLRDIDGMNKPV", "UniProt P35372, whole entry, looked up": "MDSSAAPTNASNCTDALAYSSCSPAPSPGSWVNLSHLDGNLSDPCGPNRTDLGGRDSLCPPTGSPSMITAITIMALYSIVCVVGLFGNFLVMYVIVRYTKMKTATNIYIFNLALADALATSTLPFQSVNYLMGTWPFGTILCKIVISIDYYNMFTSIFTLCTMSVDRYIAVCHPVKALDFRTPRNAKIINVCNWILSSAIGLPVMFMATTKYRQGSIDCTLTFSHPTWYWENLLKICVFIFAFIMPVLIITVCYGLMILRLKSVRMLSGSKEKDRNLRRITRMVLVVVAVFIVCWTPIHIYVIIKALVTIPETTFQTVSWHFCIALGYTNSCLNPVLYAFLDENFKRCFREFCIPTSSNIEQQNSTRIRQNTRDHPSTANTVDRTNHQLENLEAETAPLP", "UniProt P41143, whole entry, looked up": "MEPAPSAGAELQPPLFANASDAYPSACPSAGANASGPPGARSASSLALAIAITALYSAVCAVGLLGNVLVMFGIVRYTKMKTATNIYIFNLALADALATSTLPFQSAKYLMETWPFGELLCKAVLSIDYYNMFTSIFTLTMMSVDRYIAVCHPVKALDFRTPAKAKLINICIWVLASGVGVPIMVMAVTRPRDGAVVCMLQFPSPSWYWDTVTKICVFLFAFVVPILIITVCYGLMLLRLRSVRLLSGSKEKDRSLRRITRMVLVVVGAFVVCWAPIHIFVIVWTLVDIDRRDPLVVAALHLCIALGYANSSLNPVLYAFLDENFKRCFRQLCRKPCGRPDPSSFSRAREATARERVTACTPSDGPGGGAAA"}, "source": "ChEMBL document CHEMBL1144921", "about": "“14-amino, 14-alkylamino, and 14-acylamino analogs of oxymorphindole. Differential effects on opioid receptor binding and functional profiles” (J Med Chem, 2003)", "key": {"[1]": {"molecular_target": "Kappa-type opioid receptor (Homo sapiens, UniProt P41145)", "assay": "Percent stimulation of [35S]GTP-gamma-S, binding in recombinant human Opioid receptor kappa 1 transfected into CHO cells", "type": "functional, cell-based"}, "Mu-type opioid receptor": {"molecular_target": "Mu-type opioid receptor (Homo sapiens, UniProt P35372)", "assay": "Percent stimulation of [35S]GTP-gamma-S, binding in recombinant human Opioid receptor mu 1 transfected into CHO cells", "type": "functional, cell-based"}, "[2]": {"molecular_target": "Delta-type opioid receptor (Homo sapiens, UniProt P41143)", "assay": "Percent stimulation of [35S]GTP-gamma-S, binding to recombinant human Opioid receptor delta 1 expressed in CHO cells", "type": "functional, cell-based"}, "[3]": {"molecular_target": "Opioid receptors; delta & kappa (Homo sapiens) (UniProt P41145+P41143)", "assay": "Selectivity between kappa opioid receptor and delta opioid receptor.", "type": "functional"}, "[4]": {"molecular_target": "Opioid receptors; mu & delta (Homo sapiens) (UniProt P41143+P35372)", "assay": "Selectivity between mu opioid receptor and delta opioid receptor.", "type": "functional"}}, "data": [{"smiles": "CN(C(=O)Cc1ccccc1)[C@H]1CC[C@@]2(CCCO2)C[C@@H]1N1CCCC1", "values": [{"measurement": "Stimulation", "setting": "[1]", "value": 100, "unit": "%"}, {"measurement": "Stimulation", "setting": "Mu-type opioid receptor", "value": "> 10000", "unit": "%"}, {"measurement": "Stimulation", "setting": "[2]", "value": "> 10000", "unit": "%"}, {"measurement": "Selectivity", "setting": "[3]", "value": "< 3"}, {"measurement": "Selectivity", "setting": "[4]", "value": "< 0.11"}]}]}
